Experimental findings from patent US20260271928A1, “CONTROL OF PESTS RESISTANT TO INSECTICIDES” (Syngenta Crop Protection Ag, priority 2023, published 2026) are described below.

Bounds are passed on as bounds.

The target of this assay is T1, vesicular acetylcholine transporter (VAChT) (Lucilia sericata, UniProt Z9IC98WFD0).
T1 sequence (Z9IC98WFD0 1-593): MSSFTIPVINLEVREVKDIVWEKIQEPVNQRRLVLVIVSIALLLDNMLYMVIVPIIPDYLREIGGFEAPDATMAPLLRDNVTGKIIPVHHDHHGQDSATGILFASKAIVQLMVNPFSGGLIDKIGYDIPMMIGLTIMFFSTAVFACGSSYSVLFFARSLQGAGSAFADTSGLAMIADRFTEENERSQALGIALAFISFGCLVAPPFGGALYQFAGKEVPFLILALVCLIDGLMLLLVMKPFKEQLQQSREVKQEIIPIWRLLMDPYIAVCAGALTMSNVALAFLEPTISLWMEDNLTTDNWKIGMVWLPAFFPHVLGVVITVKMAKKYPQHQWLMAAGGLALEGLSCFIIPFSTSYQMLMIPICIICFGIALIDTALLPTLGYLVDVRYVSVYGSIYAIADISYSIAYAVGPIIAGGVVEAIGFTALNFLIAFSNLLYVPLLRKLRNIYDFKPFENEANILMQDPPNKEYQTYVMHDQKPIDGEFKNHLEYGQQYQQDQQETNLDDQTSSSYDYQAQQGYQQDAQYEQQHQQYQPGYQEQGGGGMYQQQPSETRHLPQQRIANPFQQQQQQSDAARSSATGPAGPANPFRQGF
As to the kind of experiment: [3H]-A1 radioligand binding and competitive displacement, Lucilia sericata head membrane. As to conditions: Lucilia membranes; ligands with identified target proteins. As to the method: Methods herein were generally adapted from this publication.
Binding of [^3H]-A1 was measured using Lucilia sericata head membrane suspended in 50 mM Tris HCL buffer (pH7.4) containing 120 mM NaCl, and 100 mM EDTA, at a protein concentration of 1 mg/ml for dispensing into 96 well plates to give 50 μg protein per well. [^3H]-A1 was added to plates as a 37 MBq/ml ethanol stock dissolved in 2.2 ml assay buffer to give an approximate final well concentration of 9 nM. Test compounds were incubated at 25° C. for 90 min with 9 nM [^3H]-A1 (or a range of concentrations for saturation analysis) at either 8 rates (where prepared manually) or 6 or 10 rates where prepared using robotics. The binding incubation was terminated by vacuum filtration through glass fibre filter mats (PerkinElmerFilterMat A, Seer Green, UK), pre-treated with 0.5% polyethyleneimine and mounted on a Tomtec cell harvester. The filters were then washed rapidly with ice-cold water, dried and bound radioactivity measured using an EG&GWallac betaplate scintillation counter after impregnating the filter with solid scintillant (PerkinElmer MeltiLex). Non specific binding was subtracted from the counts at each data point to give the specific binding. The amount of displacement was calculated as a % of the control and the IC50 calculated from a curve fitted using a single-exponential algorithm. […]

With Ryanodine, the IC50 was over 22.9 µM.
